Reference: US9919057B2, “Compounds comprising self-immolative group” (LegoChem Biosciences, Inc., priority 2014, dated 2018)

Key:
[1] = test system: SK-Br3 (HER2 positive) breast cancer cell line; test: Anti-proliferation assay of ADC (SRB); type: cell-based, human; details: 72 hours
Experimental: Anti-cell proliferation activities of antibodies, a drug, and ADC(s) illustrated in the following Table 2 on cancer cell lines were measured.
As the cancer cell lines, commercialized human breast cancer cell lines MCF-7 (HER2-negative or -normal) and SK-Br3 (HER2 positive), and a commercialized ovarian cancer cell lines SK-OV3 (HER2 positive) were used. As the drug, MMAF was used.
After each of the cancer cell lines was seeded in a 96-well plate at 10,000 cells/each well and cultured for 24 hours, the antibody and ADC were treated at a concentration of 0.01563˜2 μg/ml (2 times serial dilution), and the drug was treated at a concentration of 4˜500 nM (2 times serial dilution). After 72 hours, the numbers of living cells were quantified using a Sulforhodamine B (SRB) dye.

[2] = monkey, in vivo, iv, 3 mg/kg
[3] = In vivo mouse PK profile (total antibody, ELISA); set-up: species or system ICR male mice; details: iv single dose 2.5 mg/kg
[4] = test system: human breast carcinoma cell line BT-474; type: in vivo
Experimental: Efficacy of a drug depending on single-dose or multi-dose administration was evaluated using an orthotopic model.
A human breast carcinoma cell line BT-474 was purchased from Korea Cell Line Bank and cultured using RPMI 1640 (10% FBS, 1% penicillin/streptomycin) in an incubator (37° C., 5% CO2) in which a constant temperature and humidity was maintained. As experimental animals, Balb/c-nu female mice (6 weeks old) purchased from Japan SLC were used, and after acclimation period of 1 week, 17b-estradiol pellet (1.72 mg/pellet, Innovative Research of America, Sarasota, Fla.) was subcutaneously administered. After 6 days, BT474 cell (5×10^6 cells in 100 μL) was suitably mixed with 50% PBS/50% phenol red-free Matrigel (Becton Dickinson Bioscience) and injected into the second mammary fat pad, thereby making orthotopic models. A tumor size was measured twice per a week, and a volume was calculated by ½ [length (mm)]×[width (mm)]^2. The mice were grouped so as to have an average tumor volume of 100 mm^3 in each group after 3 weeks from cell injection, and then used in the experiment.
Animal groups were the same as those in the multi-dose administration model, a total of 4 BT474 orthotopic mice were used per group, the drugs were administered once at an initiation point in time of the experiment through the tail vein, and only observation was performed during an experiment period of 5 weeks without additional drug administration.

In vivo rat PK test = test: In vivo rat PK test; set-up: species or system female rats; details: iv single dose 3.0 mg/kg

Substance	IC50 Breast Cancer Cell Line SK-Br3 [1]	V1 [2]	C0 [3]	Body Weight Change Day 4 ([4]; 5 mg/kg QW)	Body Weight Change Day 7 ([4]; 5 mg/kg QW)	Body Weight Change Day 10 ([4]; 5 mg/kg QW)	Body Weight Change Day 14 ([4]; 5 mg/kg QW)	Body Weight Change Day 21 ([4]; 5 mg/kg QW)	tumor regrowth observed from, after a single-dose administration ([4]; 5 mg/kg once)	tumor growth, single-dose administration ([4]; 5 mg/kg once, tail vein, experiment period of 5 weeks)	tumor growth, multi-dose administration ([4]; 5 mg/kg, once a week, total of 4 times, tail vein)	tumor growth (tumor volume) ([4]; 5 mg/kg, once a week, total of three times, tail vein)	Alpha HL (In vivo rat PK test)	V1 (In vivo rat PK test)
Herceptin-G7-CVIM (LC): antibody: Herceptin with G7-CVIM motif at the light chain	1.98 µg/mL													
Herceptin-G7-CVIM (HC): antibody: Herceptin with G7-CVIM motif at the heavy chain	1.53 µg/mL													
Herceptin: trastuzumab (referred to as 'Herceptin'); Herceptin manufactured by Roche was purchased and used [reference compound]		0.03608 ± 0.00062 L/kg	39200 ng/mL	22.1	22.1	21.9	21.1	22.5	10 days	tumor regrowth phenomenon was observed	partially inhibited	partially inhibited	2.16 ± 0.50 days	0.03672 ± 0.00108 L/kg

Like-named read-outs stand apart in the source and are kept apart here.
